The values below come from PubChem BioAssay AID2023 (NMMLSC, 2009).

The list shows a part of the results, in another mix than the full data. Some salts or complexes appear as unconnected parts, following the source record. The source made the active and inactive calls.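 The calls were made as follows: active = GFP response vs DMSO above a set limit, about the screen mean plus 3 SD (cut at about 150% in these data); inconclusive = under 70 cell events counted for the yeast strain; inactive = the rest.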

This assay can be described thus: TOR pathway LAP4-GFP level changes – S. cerevisiae, multiplex flow cytometry, MLPCN library, primary screen (AID 2023). Conditions: 3 h, at 10 µM, hits give high values, median GFP as percent of DMSO wells. On the technique in general: In flow cytometry, cells or beads pass a laser one at a time.
For `CCN(CC)CCCOC(=O)C(O)(c1ccccc1)c1ccccc1`, the GFP response vs DMSO is inactive: 98.4%. On to `COc1ccccc1OP(C)(=O)Nc1cc(Cl)ccc1C` (stereo not drawn), for which the GFP response vs DMSO was inactive: 109%.

Consider `COc1ccc(OP(C)(=O)Nc2cccc(F)c2)cc1` (stereo not drawn), for which the GFP response vs DMSO was inactive: 97.5%.

Turning to `Cc1cc(C)cc(OP(C)(N)=O)c1` (stereo not drawn), the GFP response vs DMSO is inactive: 94.7%. The same measure for `CCOC(=O)c1ccc(NP(C)(=O)Oc2ccccc2)cc1` (stereo not drawn): inactive: 94.6%; for `COc1ccccc1OP(C)(=O)Nc1ccc(C)cc1` (stereo not drawn): inactive: 88.1%. Consider `CC(C)(C)c1ccc(OP(C)(=O)Nc2ccc(SC(F)(F)F)cc2)cc1` (stereo not drawn), for which the GFP response vs DMSO was inactive: 88.6%.

Regarding `Cc1cccc(C)c1OP(C)(N)=O` (stereo not drawn), the GFP response vs DMSO was inactive: 103%. Take `O=[N+]([O-])c1ccc2c(c1)C=Nc1ccccc1O2`: the GFP response vs DMSO is inactive: 121%. As to `O=[N+]([O-])c1cc([N+](=O)[O-])c(Nc2cccnc2)c([N+](=O)[O-])c1`, the GFP response vs DMSO was inactive: 113%. Consider `COc1ccccc1OP(C)(=O)Nc1ccccc1` (stereo not drawn), for which the GFP response vs DMSO is inactive: 98.4%. The same measure for `CP(=O)(Nc1ccccc1Br)Oc1ccccc1` (stereo not drawn): inactive: 90.2%; for `CP(=S)(Nn1cnnc1)Oc1ccccc1` (stereo not drawn): inactive: 104%; for `CP(=O)(Nc1ccccn1)Oc1ccc(Cl)cc1` (stereo not drawn): inactive: 90.8%. The same measure for `CCOP(C)(=S)SCC(=O)NC(C)C(=O)O` (stereo not drawn): inactive: 102%. For the molecule `CCOC(=O)c1ccc(NP(C)(=O)Oc2ccc(OC)cc2)cc1` (stereo not drawn), the GFP response vs DMSO was inactive: 84.9%. Next, `O=[N+]([O-])c1cc([N+](=O)[O-])c(O)c([N+](=O)[O-])c1.c1ccc(Oc2ccncc2)cc1`: inactive: 108%; `CCc1ccc(OP(C)(=O)N2CCN(c3ccc([N+](=O)[O-])cc3)CC2)cc1` (stereo not drawn): inactive: 118%; `CP(=O)(NC(=O)Nc1ccccc1)Oc1ccccc1` (stereo not drawn): inactive: 98.9%. The same measure for `Cc1cc(C)cc(OP(C)(=O)Nc2ccc(SC(F)(F)F)cc2)c1` (stereo not drawn): inactive: 101%; for `Cc1cccc(C)c1OP(C)(=O)Nc1ccc(SC(F)(F)F)cc1` (stereo not drawn): inactive: 87.3%; for `CP(=O)(Nc1ccc(SC(F)(F)F)cc1)Oc1ccc(Cl)cc1` (stereo not drawn): inactive: 111%. `CP(=O)(Oc1ccccc1)OC(c1ccccc1)C(F)(F)F` (stereo not drawn): the GFP response vs DMSO was inactive: 96.7%.

With `Cc1nc2ccc3ccccc3c2s1.O=[N+]([O-])c1cc([N+](=O)[O-])c(O)c([N+](=O)[O-])c1`, the GFP response vs DMSO is inactive: 97.7%. On to `O=[N+]([O-])c1cc([N+](=O)[O-])c(-c2cnn(-c3ccccc3)c2)c([N+](=O)[O-])c1`, for which the GFP response vs DMSO is inactive: 126%. The same measure for `O=[N+]([O-])c1cc([N+](=O)[O-])c(-n2nnc3ccccc32)c([N+](=O)[O-])c1`: inactive: 102%. Next, `CP(=O)(Nc1ccc(SC(F)(F)F)cc1)Oc1ccccc1` (stereo not drawn): inactive: 93.4%.

Take `CCCOc1ccc(NP(C)(=O)Oc2ccc(Cl)cc2)cc1` (stereo not drawn): the GFP response vs DMSO was inactive: 105%.

In the case of `COc1ccccc1OP(C)(=O)Nc1c(C)cccc1C` (stereo not drawn), the GFP response vs DMSO was inactive: 98.8%. For the molecule `CN1CCCCC1COC(=O)C1(O)c2ccccc2CCc2ccccc21` (stereo not drawn), the GFP response vs DMSO is inactive: 83.5%. The same measure for `O=[N+]([O-])c1cc([N+](=O)[O-])c(Nc2nnnn2CCO)c([N+](=O)[O-])c1`: inactive: 84.2%. Turning to `CC1=C2N=C(C=C3N=C(C(C)=C4[N-][C@@](C)([C@@H]5N=C1[C@](C)(CCC(=O)NC[C@@H](C)OP(=O)([O-])O[C@H]1[C@@H](O)[C@@H](n6cnc7cc(C)c(C)cc76)O[C@@H]1CO)[C@H]5CC(N)=O)[C@@](C)(CC(N)=O)[C@@H]4CCC(N)=O)[C@@](C)(CC(N)=O)[C@@H]3CCC(N)=O)C(C)(C)[C@@H]2CCC(N)=O.[C-]#N.[Co+3]`, the GFP response vs DMSO is inactive: 104%. The same measure for `CCOC(=O)C(CC)C1=NC(C)(C)Cc2ccccc21.O=[N+]([O-])c1cc([N+](=O)[O-])c(O)c([N+](=O)[O-])c1` (stereo not drawn): inactive: 107%; for `CC1=NCCc2c1[nH]c1ccccc21.O=[N+]([O-])c1cc([N+](=O)[O-])c(O)c([N+](=O)[O-])c1`: inactive: 116%. Next, `O=C(O)c1cccc(Nc2c([N+](=O)[O-])cc([N+](=O)[O-])cc2[N+](=O)[O-])c1`: inactive: 112%; `CP(=O)(Nc1cccc(Br)c1)Oc1ccccc1` (stereo not drawn): inactive: 116%; `Cc1cc(C)cc(OP(C)(=O)Nc2ccccn2)c1` (stereo not drawn): inactive: 94.3%.

On to `Cc1ccc(C)c(NP(C)(=O)Oc2ccccc2)c1` (stereo not drawn), for which the GFP response vs DMSO is inactive: 100%. `Cc1cc(C)cc(OP(C)(=O)Nc2ccc(C)cc2C)c1` (stereo not drawn): the GFP response vs DMSO is inactive: 92.8%.

`CCOC(=O)c1ccc(NP(C)(=O)Oc2cc(C)cc(C)c2)cc1` (stereo not drawn): the GFP response vs DMSO was inactive: 101%. For `COc1ccccc1OP(C)(=O)Nc1cccc(Br)c1` (stereo not drawn), the GFP response vs DMSO was inactive: 109%. `COc1ccc2c(c1O)-c1c(O)c(OC)cc3c1[C@H](C2)[N+](C)(C)CC3.O=[N+]([O-])c1cc([N+](=O)[O-])c([O-])c([N+](=O)[O-])c1[O-]`: the GFP response vs DMSO is inactive: 109%. The same measure for `O=C(OCCN1CCN(CCOCc2ccccc2)CC1)C(O)(c1ccccc1)c1ccccc1`: inactive: 93%. For `O=C(OC1CN2CCC1CC2)c1ccc([N+](=O)[O-])cc1` (stereo not drawn), the GFP response vs DMSO was inactive: 106%. Next, `CC(C)c1ccc(OP(C)(=O)Nc2ccc(SC(F)(F)F)cc2)cc1` (stereo not drawn): inactive: 106%.

Consider `CP(=O)(Nc1ccccc1F)Oc1ccccc1` (stereo not drawn), for which the GFP response vs DMSO is inactive: 79.3%.

On to `CCCCCOc1ccc(NP(C)(=O)Oc2ccc(Cl)cc2Cl)cc1` (stereo not drawn), for which the GFP response vs DMSO was inactive: 114%. Consider `O=[N+]([O-])c1cc([N+](=O)[O-])c(OC2CCCCC2O)c([N+](=O)[O-])c1` (stereo not drawn), for which the GFP response vs DMSO was inactive: 99%.

`CP(=O)(Nc1ccccc1)Oc1ccc(F)cc1` (stereo not drawn): the GFP response vs DMSO was inactive: 96.9%. Next, `CCN(CC)CCCOC(=O)C(O)(c1ccccc1)C1CCCCC1` (stereo not drawn): inactive: 108%. Next, `COc1ccc(OP(C)(=O)Nc2ccc(SC(F)(F)F)cc2)cc1` (stereo not drawn): inactive: 94.3%; `CCOC(=O)c1ccc(NP(C)(=O)Oc2ccc(F)cc2)cc1` (stereo not drawn): inactive: 96.1%.

In the case of `O=[N+]([O-])c1cc([N+](=O)[O-])c(NCC2CCS(=O)(=O)C2)c([N+](=O)[O-])c1` (stereo not drawn), the GFP response vs DMSO is inactive: 93%. Next, `O=[N+]([O-])c1ccc(OP2(=O)COCCO2)cc1` (stereo not drawn): inactive: 90.3%; `COc1ccc(NP(C)(=O)Oc2ccccc2OC)cc1` (stereo not drawn): inactive: 95.5%. Next, `CN(C)CCOC(=O)C(O)(c1ccccc1)C1CCCCC1` (stereo not drawn): inactive: 103%; `COc1ccc(OP(C)(=O)Nc2cccc(Br)c2)cc1` (stereo not drawn): inactive: 95.8%. Next, `Cc1ccccc1NP(C)(=O)Nc1ccccc1C`: inactive: 86.9%.

For the molecule `CP(=O)(Nc1ccc2c(c1)OCCO2)Oc1ccccc1` (stereo not drawn), the GFP response vs DMSO was inactive: 93.1%. As to `CCOP(C)(=S)SCC(=O)NC(C)(CC)C(=O)O` (stereo not drawn), the GFP response vs DMSO is inactive: 102%. The same measure for `CP(=O)(Nc1ccc(SC(F)(F)F)cc1)Oc1ccc(F)cc1` (stereo not drawn): inactive: 107%. With `CN(C)C(=O)c1c([N+](=O)[O-])cc([N+](=O)[O-])cc1[N+](=O)[O-]`, the GFP response vs DMSO was inactive: 111%.

Turning to `CP(=O)(Nc1ccc(Cl)cc1)Oc1ccc(F)cc1` (stereo not drawn), the GFP response vs DMSO was inactive: 92.1%. Take `CC(C)(C)c1ccc(OP(C)(=O)O)cc1`: the GFP response vs DMSO is inactive: 91.8%. On to `COc1ccccc1OP(C)(=O)Nc1ccccc1Br` (stereo not drawn), for which the GFP response vs DMSO is inactive: 105%. Take `CP(=O)(Oc1ccccc1)N1CCOC1=O` (stereo not drawn): the GFP response vs DMSO is inactive: 98%. Regarding `CCc1ccc(OP(C)(=O)Nc2cccnc2)cc1` (stereo not drawn), the GFP response vs DMSO is inactive: 105%. As for `COc1ccccc1OP(C)(=O)Nc1c(C)n(C)n(-c2ccccc2)c1=O` (stereo not drawn), the GFP response vs DMSO is inactive: 79%. Next, `O=C(OCCCN1CCCC1)C(O)(c1ccccc1)C1CCCCC1` (stereo not drawn): inactive: 112%. The same measure for `CCN(CC)CC(O)COC(=O)C(O)(c1ccccc1)C1CCCCC1` (stereo not drawn): inactive: 104%; for `COc1ccc(OP(C)(=O)Nc2ccc(Br)cc2)cc1` (stereo not drawn): inactive: 84.8%; for `CP(=O)(OC12CC3CC(CC(C3)C1)C2)OC12CC3CC(CC(C3)C1)C2`: inactive: 101%. In the case of `CCOC(=O)c1ccc(NP(C)(=O)Oc2ccc(Cl)cc2)cc1` (stereo not drawn), the GFP response vs DMSO is inactive: 94.5%. Next, `Nc1ccc2c(ccc3cccnc32)n1.O=[N+]([O-])c1cc([N+](=O)[O-])c(O)c([N+](=O)[O-])c1`: inactive: 127%. The same measure for `CP(=O)(OCCOc1ccccc1)OCCOc1ccccc1`: inactive: 112%; for `CP(=O)(Nc1ccc(Cl)cc1Cl)Oc1ccccc1` (stereo not drawn): inactive: 100%. With `Cc1nc2ccc3ccccc3c2o1.O=[N+]([O-])c1cc([N+](=O)[O-])c(O)c([N+](=O)[O-])c1`, the GFP response vs DMSO was inactive: 90%. The same measure for `COc1ccc(OP(C)(=O)Nc2ccccc2Br)cc1` (stereo not drawn): inactive: 80.3%; for `COc1ccccc1OP(C)(=O)Nc1ccc(C)c(C)c1` (stereo not drawn): inactive: 90.3%. The same measure for `Cc1cc(C)cc(OP(C)(=O)Nc2cccc(C(F)(F)F)c2)c1` (stereo not drawn): inactive: 103%; for `CCc1ccc(OP(C)(=O)O)cc1`: inactive: 113%. Next, `CP(=O)(Nc1ccccn1)Oc1ccccc1` (stereo not drawn): inactive: 99.5%. With `COc1ccccc1OP(C)(=O)Nc1ccc(C)cc1C` (stereo not drawn), the GFP response vs DMSO is inactive: 90.4%. Regarding `O=[N+]([O-])c1cc([N+](=O)[O-])c(Nc2ccccn2)c([N+](=O)[O-])c1`, the GFP response vs DMSO is inactive: 118%. Next, `Cc1c(NP(C)(=O)Oc2ccc(C(C)C)cc2)c(=O)n(-c2ccccc2)n1C` (stereo not drawn): inactive: 103%; `CN(C)CCOC(=O)C(O)(c1ccccc1)C1CCCC1` (stereo not drawn): inactive: 99.2%; `COc1ccc(OP(C)(=O)Nc2ccccn2)cc1` (stereo not drawn): inactive: 100%.

On to `COc1ccccc1OP(C)(=O)Nc1ccc(Br)cc1` (stereo not drawn), for which the GFP response vs DMSO is inactive: 98.6%.
